Results published in patent US20100055093A1, “PAN-CELL SURFACE RECEPTOR-SPECIFIC THERAPEUTICS” (RECEPTOR BIOLOGIX INC., priority 2006, published 2010).

Legend:
heregulin (HRG) = test: 125I-HRG binding with BS3 cross-linking and SDS-PAGE; details: 5 nM 125I-HRG, BS3 cross-linking, SDS-PAGE
Protocol: The binding of HER ECD derivatives to heregulin was performed using a similar assay as described for binding to EGF described in part A above. […] 1 mM of the BS3 crosslinker was added at the end of the binding assay to cross-link the bound molecules. Binding reactions were separated on an SDS-PAGE gel. The protein gel was dried and exposed to a film for 2 and 6 hours.
Binding of radiolabeled EGF to HER1-621/Fc, HER2-650/Fc, HER3-621/Fc, HER4-650/Fc was determined as described above. […] Western blots were probed with anti-His antibody to compare protein levels. […] Radiolabeled HRG binds only to HER3-621/Fc and HER4-650/Fc molecules.

A431 cells = test: Monolayer cell proliferation, crystal violet; assay type: cell-based, human
A549 cells [1] = test: Monolayer cell proliferation, crystal violet; assay type: cell-based, human; details: A549, Lung, monolayer culture
Protocol: (§1) Cell proliferation studies were conducted in serum-free medium as indicated. Cells were plated in 96-well tissue culture plates (Falcon #35-3075, Becton Dickinson, N.J.) at 2000 to 6000 cells per well, as appropriate for a cell line, and then grown overnight (15 to 18 hrs). For the cell proliferation studies done in serum containing medium, the cells were then treated with or without compounds and allowed to grow for 3 to 5 days. […] After plating cells in serum, the cells were grown overnight (15 to 20 hrs), then the cells were switched to serum-free medium and grown for 24 to 48 hrs (serum-starvation). […] Cell proliferation was quantified by crystal violet dye method as described previously (Sugarman et al., 1987). Briefly, the culture medium was decanted, the cells washed once with PBS, followed by addition of 50 μl/well 0.5% (w/v) crystal violet dye (Sigma-Aldrich, St Loius, Mo.) in methanol and incubation for 20 min. The plates were washed with water 3-times and then air-dried overnight. The cell-bound dye was eluted with 100 μl/well Sorenson's buffer (25 mM sodium citrate in 50% ethanol) for 15 min on a plate shaker. The plate was then read on a plate reader at 540 nm wavelength for absorbance, which was directly proportional to the amount of cells in the well.
(§2) Cell proliferation studies were conducted in either serum containing or in serum-free medium as indicated. Cells were plated in 96-well tissue culture plates (Falcon #35-3075, Becton Dickinson, N.J.) at 2000 to 6000 cells per well, as appropriate for a cell line, and then grown overnight (15 to 18 hrs). For the cell proliferation studies done in serum containing medium, the cells were then treated with or without compounds and allowed to grow for 3 to 5 days. For cell proliferation studies done in serum-free growth conditions. After plating cells in serum, the cells were grown overnight (15 to 20 hrs), then the cells were switched to serum-free medium and grown for 24 to 48 hrs (serum-starvation). […] Cell proliferation was quantified by crystal violet dye method as described previously (Sugarman et al., 1987). Briefly, the culture medium was decanted, the cells washed once with PBS, followed by addition of 50 μl/well 0.5% (w/v) crystal violet dye (Sigma-Aldrich, St Loius, Mo.) in methanol and incubation for 20 min. The plates were washed with water 3-times and then air-dried overnight. The cell-bound dye was eluted with 100 μl/well Sorenson's buffer (25 mM sodium citrate in 50% ethanol) for 15 min on a plate shaker. The plate was then read on a plate reader at 540 nm wavelength for absorbance, which was directly proportional to the amount of cells in the well.

N-87 cells = test: Monolayer cell proliferation, crystal violet; assay type: cell-based, human; details: N-87, Gastric, monolayer culture
Protocol: as §1, §2

ZR-75-1 cells [2] = test: Monolayer cell proliferation, crystal violet; assay type: cell-based, human; details: ZR-75-1, Breast, monolayer culture
Protocol: as §1, §2

SK-BR-3 cells = test: Monolayer cell proliferation, crystal violet; assay type: cell-based, human; details: SK-BR-3, Breast, monolayer culture
Protocol: as §1, §2

MDA-MB-468 cells = test: Monolayer cell proliferation, crystal violet; assay type: cell-based; details: MDA-MB-468, Breast, monolayer culture
HT-29 cells = test: Monolayer cell proliferation, crystal violet; assay type: cell-based, human; details: HT-29, Colon, monolayer culture
H2122 cells = test: Monolayer cell proliferation, crystal violet; assay type: cell-based; details: H2122, Lung, monolayer culture
Hs578 Bst normal cells = test: Monolayer cell proliferation, crystal violet; assay type: cell-based
Protocol: as §2

ZR75-1 cells = test: Ligand-stimulated cell proliferation, Alamar Blue; assay type: cell-based, human
Protocol: Cell lines MCF7, ZR75-1, ME180 were purchased from ATCC and kept in 10% of FBS DMEM. Cells were seeded at 2000 per well in 96-well plate in 1% FBS supplemented DMEM. After 2-3 hr of seeding, increasing concentrations of candidate HER ECD derivatives were added to the culture in the present of ligands (EGF or HRGβ). Cells were incubated at 37° C. for about 72 hr. Cells relative density were measured by Alamar Blue method. Alamar Blue (Sigma) was prepared in PBS at concentration of 4 uM, added to the microplate at 1/10 volume of culture medium (final concentration 0.4 uM) and plates returned to the incubator. Fluorescence was read at Ex.=530 nm/Em.=590 nm after 2-4 hours at 37° C.

SUM149 cells = test: Growth factor or LPA stimulated cell proliferation in serum-free medium; assay type: cell-based; details: SUM 149 cells
Protocol: as §1
The cell proliferation was conducted as described in Example 19. […]

A549 cells [3] = test: Soft agar colony growth assay; assay type: cell-based, human
Protocol: (§3) The soft agar colony growth assays were performed based on the method described by Hudziak et al (1987), except that the assay was done in 24-well plates with 1.5 ml of 0.5% agarose in culture medium with 10% fetal bovine serum as the base layer and the top layer containing the cells was 0.5 ml of 0.25% agarose in 10% fetal bovine serum. Compounds were added to the top layer. The colony growth was allowed to occur at 37° C. in a humidified incubator with 5% CO2 and 95% air. At approximately every 3-days, 50 μl/well sterile water was added to prevent drying. The cell colonies were stained with 1.0 ml/well of 0.001% crystal violet in water overnight at 4° C. The cell colonies were counted using a microscope.

ZR-75-1 cells [4] = test: Soft agar colony growth assay; assay type: cell-based, human
Protocol: as §3

Substance: RB200h: heterodimer: full length HER 1 ECD linked to full length HER 3 ECD via Fc domain (HER1-621/Fc and HER3-621/Fc with His tag)
- binding of 125I-HRG (heregulin (HRG)): binds
- RB200 Efficacy (growth inhibition of cells) (A431 cells; A431, Epidermoid, monolayer culture): +++ (+++ = 31 to 50% growth inhibition of cells by RB200)
- EC50 (A431 cells; A431 epidermoid cancer cells, monolayer, read-out: EC50, inhibition of proliferation): 71 nM
- RB200 Efficacy (growth inhibition of cells) (A549 cells [1]): ++ (++ = 21 to 30%)
- RB200 Efficacy (growth inhibition of cells) (N-87 cells): − (− = <10%)
- RB200 Efficacy (growth inhibition of cells) (ZR-75-1 cells [2]): + (+ = 10 to 20%)
- RB200 Efficacy (growth inhibition of cells) (SK-BR-3 cells): +++ (+++ = 31 to 50% growth inhibition of cells by RB200)
- RB200 Efficacy (growth inhibition of cells) (MDA-MB-468 cells): ++ (++ = 21 to 30%)
- RB200 Efficacy (growth inhibition of cells) (HT-29 cells): − (− = <10%)
- RB200 Efficacy (growth inhibition of cells) (H2122 cells): − (− = <10%)
- inhibition of cell proliferation (Hs578 Bst normal cells): no significant inhibition of cell proliferation
- maximal inhibition of proliferation (ZR75-1 cells; ZR-75-1 cells stimulated by EGF, at about 1 nM (plateau up to about 600 nM)): about 80%
- maximal inhibition of proliferation (ZR75-1 cells; ZR-75-1 cells stimulated by HRG, at about 600 nM): about 80%
- effect on EGF-stimulated proliferation (SUM149 cells): completely blocked
- effect on LPA stimulated proliferation (SUM149 cells): completely blocked
- effect on EGF or NRG1β1 treated colony growth (A549 cells [3]): did not produce statistically significant inhibition
- inhibition of colony growth (A549 cells [3]; in the absence of growth factors): approximately 65%
- effect on EGF or NRG1β1 stimulated soft agar colony growth (ZR-75-1 cells [4]): inhibited
